From ChEMBL document CHEMBL1134124, “Isoindolines: a new series of potent and selective endothelin-A receptor antagonists” (Bioorg Med Chem Lett, 2001)

Chains of the proteins cited; added tags and fusions are not shown.
UniProt P25101, whole entry: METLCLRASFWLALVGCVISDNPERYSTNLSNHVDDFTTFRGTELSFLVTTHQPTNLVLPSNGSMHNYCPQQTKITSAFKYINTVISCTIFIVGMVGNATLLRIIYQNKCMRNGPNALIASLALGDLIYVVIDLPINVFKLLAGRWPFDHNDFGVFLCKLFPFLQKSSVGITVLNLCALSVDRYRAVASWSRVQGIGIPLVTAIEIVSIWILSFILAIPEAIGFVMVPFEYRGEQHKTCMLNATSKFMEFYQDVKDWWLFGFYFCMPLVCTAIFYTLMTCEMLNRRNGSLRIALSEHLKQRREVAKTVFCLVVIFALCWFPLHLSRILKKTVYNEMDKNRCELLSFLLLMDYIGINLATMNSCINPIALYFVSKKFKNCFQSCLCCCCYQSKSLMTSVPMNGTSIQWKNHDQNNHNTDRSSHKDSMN

Biological target: Endothelin-1 receptor (Homo sapiens, UniProt P25101)
Test: In vitro inhibition of [125I]ET1 binding to CHO cells expressing recombinant human Endothelin A receptor
Format: cell-based

Which IC50 does the source give for `CCOc1ccc2c(c1)[C@H](c1cc(OC)c(OC)c(OC)c1)N(CC(=O)O)[C@@H]2c1ccc2c(c1)OCO2` here?
The IC50 was 1.1 µM.
